Source: BindingDB's records for doi:10.1002/(SICI)1098-2396(19990601)32:3 (Mcgill University, 1999)

Molecular target: Norepinephrine transporter (Rattus norvegicus, UniProt Q9JIA2)

Structure (SMILES): COc1ccc(C(CN(C)C)C2(O)CCCCC2)cc1 (stereo unspecified) [NSC_62923]
- Ki: 1.26 nM
